Values quoted from earlier work, collected in patent publication US8392166B2.

Molecular target: Thrombin (Homo sapiens, UniProt P00734)
Conditions: for pKi: Thrombin inhibitors, FIG. 1

Row | pKi | biological activity (experimentally determined, with respect to the reference compound) | SMILES
1 | 6.30 | improved | CN1C(c2ccc(C(=N)N)cc2)C2C(=O)N(Cc3ccc4c(c3)OCO4)C(=O)C2C1(C)C (stereo not drawn)
2 | 6.70 | – | CN1C(c2ccc(C(=N)N)cc2)C2CN(Cc3ccc4c(c3)OCO4)C(=O)C2C1(C)C (stereo not drawn)

pKi: −log10 of the molar value.
